For assay [1], the target named is human histamine H3 receptors (Homo sapiens (Human), UniProt Q9Y5N1). In words: Histamine H3 SPA with the agonist radioligand [3H]-N-α-methylhistamine (hH3 binding). The note with it: inhibition of [3H]-N-α-methylhistamine (1.4 nM) binding to CHO-K1 membranes expressing full-length human H3 (isoform 445). On the procedure:
Histamine H3 SPA with the Agonist Radioligand [^3H]-N-α-Methylhistamine
The H3 binding assay was/can be used to evaluate the ability of at least one compound in accordance with formula I, Ia, Ib, and/or Ic to inhibit [^3H]-N-α-methylhistamine binding to CHO-K1 membranes expressing human histamine H3 receptors (full-length H3, the most prevalent brain isoform 445). In 200 μl 96-well SPA format, human H3 membranes (12.5 μg protein/well) and 1.4 nM [^3H]-N-α-methylhistamine were/can be incubated with at least one compound in accordance with formula I, Ia, Ib, and/or Ic for 1.5 hrs to determine percent effect with respect to total (1% DMSO) and non-specific binding (10 μM imetit). Reproducibility of the assay is such that IC50 curves can be generated in singlicate. Single poke (SP) testing can be done in triplicate.
Membranes, prepared from CHO-K1 cells stably expressing the human histamine H3 receptor, can be obtained from ACS.
Tested formula I, Ia, Ib, and/or Ic compounds were/can be provided as solubilized samples in neat DMSO. Serial dilutions were/can be performed in DMSO.
Plates were/can be 96-well Unifilter GF/B (Perkin Elmer, 6005177). Plates were/can be read on a Perkin Elmer TopCount. CPM data was/can be used to analyze unless DPM data generated by a quench curve was/is required.
• 1. 1 mg/ml BSA was/can be added to assay buffer (AB) on day of assay. • 2. Amounts required for bead/membrane pool in AB were/can be calculated: “P”−need 17.1 ml/assay plate+10 ml PlateMate excess. Buffer volume was/can be split between beads and membranes to allow for polytroning of membranes prior to addition to beads. • a. PVT-WGA SPA Beads: beads (P×9.83 mg/ml) were/can be resuspended for 1750 μg/well final. A minimum of 15 minutes was/can be waited prior to adding membranes (See b. below). • b. Membranes (hH3 membranes from CHO cells containing recombinant human H3 receptors, 11.7 mg/ml): membranes were/can be removed from −80° C. and thawed in RT waterbath. […] 5 μl samples were/can be calculated in quadruplicate on the 13 counter. […]

By UniProt entry, the sequences of proteins in these tests, tags left out. Where a name states a change or a piece, a line headed by the entry shows the natural chain unless it says otherwise.
UniProt Q9Y5N1: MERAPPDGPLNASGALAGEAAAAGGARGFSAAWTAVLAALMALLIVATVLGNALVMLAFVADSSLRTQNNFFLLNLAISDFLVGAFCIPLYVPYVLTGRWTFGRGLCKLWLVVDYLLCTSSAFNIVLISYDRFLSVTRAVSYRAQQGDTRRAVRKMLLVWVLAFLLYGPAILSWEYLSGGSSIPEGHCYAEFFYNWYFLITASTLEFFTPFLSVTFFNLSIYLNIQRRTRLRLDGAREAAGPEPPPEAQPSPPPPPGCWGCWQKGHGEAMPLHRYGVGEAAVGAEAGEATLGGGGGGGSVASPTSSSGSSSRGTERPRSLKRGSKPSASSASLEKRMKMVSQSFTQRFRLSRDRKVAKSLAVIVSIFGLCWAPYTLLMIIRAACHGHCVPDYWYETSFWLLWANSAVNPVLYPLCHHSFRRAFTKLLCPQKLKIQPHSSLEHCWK

Assay [2] addresses human Histamine H3 receptor (hH3R) (Homo sapiens (Human), UniProt Q9Y5N1). Put plainly: Guanosine 5'-O-(3-[35S]thio)triphosphate [GTPγS] binding assay. In kind it is biochemical. The note with it: antagonist mode vs (R)-α-methyl histamine 30 nM; membranes from CHO cells expressing hH3R. On the procedure: The IC50 and nH can be determined by fitting the data to model 205 in XLfit: y=A+((B−A)/(1+((C/x)^D)). Guanosine 5′-O-(3-[^35S]thio)triphosphate [GTPγS] Binding Assay
A GTPγS binding assay can be used to investigate antagonist properties of compounds in CHO cells (Chinese Hamster Ovary) transfected with human Histamine H3 receptor (hH3R). Membranes from CHO cells expressing hH3R (10 μg/well) are diluted in GTPγS assay buffer (20 mM Hepes, 10 mM MgCl2, 100 mM NaCl, pH 7.4) and preincubated with saponine (3 μg/ml), GDP (10 μM) and PVT-WGA SPA beads (125 μg/well) (Amersham) for 30 minutes. To determine antagonist activity, (R)-α-methyl histamine (30 nM) is added in 96 well SPA plate with [^35S]GTPγS (0.2 nM) and various concentration of H3R antagonists. The GTPγS binding assay is started with addition of the mixture membrane/saponine/GDP and incubated for 90 minutes at room temperature. The amount of bound [^35S]GTPγS is determined by using the MicroBeta Trilux counter (PerkinElmer). The percentage of [^35S]GTPγS bound in each sample is calculated as a percentage of that bound control sample incubated in absence of H3 antagonist. Duplicate determinations are obtained for each concentration, and the data are analyzed using ExcelFit4 to obtain the IC50.
(In general: GTPγS is a poorly hydrolysed GTP analogue; its binding reports G protein activation.)

In assay [1], `CC(C)N1CCN(C(=O)[C@H]2C[C@@H]2c2ccccc2)CC1` (relative stereo) [Example 1, trans-(4-Isopropylpiperazin-1-yl)-(2-phenylcyclopropyl)methanone] came in with an IC50 of 21.3 nM.

Consider `N#Cc1ccc([C@H]2C[C@@H]2C(=O)N2CCN(C3CCC3)CC2)cc1` (relative stereo) [Example 21, trans-4-[2-(4-Cyclobutylpiperazine-1-carbonyl)cyclopropyl]benzonitrile], for which the IC50 in assay [2] stood at 17.5 nM; in assay [1] it was 20.2 nM.

Compound `CC(C)N1CCN(C(=O)[C@@H]2C[C@H]2c2ccccc2)CC1` (single isomer, unassigned; enantiomer 2) [Example 32, trans-(4-Isopropylpiperazin-1-yl)-(2-phenylcyclopropyl)methanone, enantiomer 2] registered an IC50 in assay [2] of 3530 nM.

In assay [1], `CC(C)N1CCN(C(=O)[C@H]2C[C@@H]2c2ccc(F)cc2)CC1` (relative stereo) [Example 10, trans-[2-(4-Fluorophenyl)cyclopropyl]-(4-isopropylpiperazin-1-yl)methanone] came in with an IC50 of 10.2 nM.

The term IC50 denotes the midpoint of a concentration-inhibition curve. High values mean weaker potency in that assay, low ones greater potency in that assay.

These data come from patent US9029381B2, “Cyclopropyl amide derivatives” (Astrazeneca AB, priority 2007, dated 2015).
